Amino acid sequences for entries named in this document (tags omitted). Residues count along the entry.
UniProt P07339, 65-412: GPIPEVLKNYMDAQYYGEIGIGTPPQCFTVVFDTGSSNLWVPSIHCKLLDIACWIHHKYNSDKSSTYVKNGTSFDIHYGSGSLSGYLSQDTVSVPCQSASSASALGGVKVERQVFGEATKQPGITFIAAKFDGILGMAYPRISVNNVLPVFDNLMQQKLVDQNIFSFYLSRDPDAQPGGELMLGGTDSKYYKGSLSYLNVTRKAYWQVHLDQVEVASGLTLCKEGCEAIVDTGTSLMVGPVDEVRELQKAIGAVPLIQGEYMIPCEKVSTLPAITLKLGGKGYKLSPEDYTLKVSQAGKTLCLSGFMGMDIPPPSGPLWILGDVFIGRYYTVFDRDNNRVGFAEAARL

In patent publication US12577702B2, “Oligonucleotide encoded chemical libraries, related systems, devices, and methods for detecting, analyzing, quantifying, and testing biologics/genetics” (Plexium, Inc., priority 2020, dated 2026):

Target: Cathepsin-D protease (Homo sapiens, UniProt P07339)
Experiment: Protease inhibition assay in picowells with compound photo-released from beads
Assay type: biochemical
Conditions: compound released from 10 μm TentaGel bead by UV (365 nm, 77 J/cm^2) to approximately 13 μM; incubated 30 min, 37° C.; λex=480 nm, λem=525 nm

In the case of CC(C)CC(=O)N[C@H](C(=O)N[C@H](C(=O)N[C@@H](CC(C)C)[C@@H](O)CC(=O)N[C@@H](C)C(=O)N[C@@H](CC(C)C)[C@@H](O)CC(=O)O)C(C)C)C(C)C [positive control beads, Pepstatin-A], the “Cathepsin-D inhibition (fluorescence of Peptide Q-Fluor substrate in well)” value was “strong inhibition”.
